# Where two headings read alike, the source gives them in different places.
# What was measured:
# [1] = 20 MHz, 40° C.
# mouse = details: i.v., 0.5M solution, confidence limit of 27.3-38.8 mmol/kg
substance,measurement,setting,value
"{Aqua(N,N""-bis(N""""-2-methoxyethylcarbamoylmethyl-N""'-methylcarbamoylmethyl)diethylenetraimine-N,N', N""-tri acetate)}gadolinium(III)",R1 relaxivity rate,[1]; 4% bovine serum albumin (BSA),4.6 mmol⁻¹ s⁻¹
same,R1 relaxivity rate,[1]; sterile water for injection (SWFI),4.3 mmol⁻¹ s⁻¹
same,LD50,mouse,32.5 mmol/kg
